The values that follow come from article PMC2812024 (Journal of medicinal chemistry, 2008).

For this assay, the target named is δ-opioid receptors (Rattus norvegicus, UniProt P33533). As to the kind of experiment: Competitive binding, rat brain P2 synaptosomal membranes, [3H]deltorphin II. Set-up: species or system Sprague-Dawley rats. To be noted: read-out: KD of radioligand; radioligand for δ-opioid receptors.

As a reminder, the Kd is the concentration at which binding is half-saturated.

In the case of “H-Tyr-D-Ala-Phe-Asp-Val-Val-Gly-NH2 (YAFDVVG) [[^3H]deltorphin II]”, the equilibrium dissociation constant (Kd) was determined as 1.4 nM.
